This test deals with Recombinant human cathepsin S (CatS) (Homo sapiens, UniProt P25774). The test can be described thus: biochemical.

Chains of the proteins cited; added tags and fusions are not shown. Residues count along the entry.
UniProt P25774, 115-331: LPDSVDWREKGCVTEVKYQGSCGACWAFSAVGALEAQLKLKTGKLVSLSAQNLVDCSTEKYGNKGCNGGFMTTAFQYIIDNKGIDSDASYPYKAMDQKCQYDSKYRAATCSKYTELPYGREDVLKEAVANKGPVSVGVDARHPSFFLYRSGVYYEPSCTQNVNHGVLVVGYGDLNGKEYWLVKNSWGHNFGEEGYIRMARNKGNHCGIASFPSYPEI

SMILES strings stand for the structures. pIC50: −log10 of the molar value.

This is an account of results in patent US20090099157A1, “TETRAHYDRO-PYRAZOLO-PYRIDINE THIOETHER MODULATORS OF CATHEPSIN S” (priority 2007, published 2009).

As usually defined, the pIC50 is the IC50 on a negative log10 scale, so that one unit is a factor of ten. Consider `C[C@H](O)C(=O)N1CCc2c(c(-c3ccc(C(F)(F)F)c(SCCN4CCOCC4)c3)nn2CC(O)CN2CCCCC2)C1` (stereo partly drawn) [Example 334, (2S)-1-[1-(2-Hydroxy-3-piperidin-1-ylpropyl)-3-{3-[(2-morpholin-4-ylethyl)sulfanyl]-4-(trifluoromethyl)phenyl}-1,4,6,7-tetrahydro-5H-pyrazolo[4,3-c]pyridin-5-yl]-1-oxopropan-2-ol], for which the pIC50 was 5.99.

Turning to `CS(=O)(=O)N1CCc2c(c(-c3ccc(C(F)(F)F)c(SCCN4CCOC(CO)C4)c3)nn2CC(O)CN2CCCCC2)C1` (centres unmarked) [Example 164, 1-{3-[3-({2-[2-(Hydroxymethyl)morpholin-4-yl]ethyl}sulfanyl)-4-(trifluoromethyl)phenyl]-5-(methylsulfonyl)-4,5,6,7-tetrahydro-1H-pyrazolo[4,3-c]pyridin-1-yl}-3-piperidin-1-ylpropan-2-ol], the pIC50 is 6.40.

On to `CS(=O)(=O)N1CCc2c(c(-c3ccc(C(F)(F)F)c(SCCN4CCCC4)c3)nn2CC(O)CN2CCC(C(=O)N3CCCC3)CC2)C1` (centres unmarked) [Example 680, 1-[5-(Methylsulfonyl)-3-{3-[(2-pyrrolidin-1-ylethyl)sulfanyl]-4-(trifluoromethyl)phenyl}-4,5,6,7-tetrahydro-1H-pyrazolo[4,3-c]pyridin-1-yl]-3-[4-(pyrrolidin-1-ylcarbonyl)piperidin-1-yl]propan-2-ol], for which the negative logarithm of the IC50 (pIC50) is 6.96.

Turning to `CS(=O)(=O)N1CCc2c(c(-c3ccc(C(F)(F)F)c(SCCN4CCOCC4)c3)nn2CC(O)CN2CCC(O)(c3ccccc3)CC2)C1` (centres unmarked) [Example 722, 1-{2-Hydroxy-3-[5-(methylsulfonyl)-3-{3-[(2-morpholin-4-ylethyl)sulfanyl]-4-(trifluoromethyl)phenyl}-4,5,6,7-tetrahydro-1H-pyrazolo[4,3-c]pyridin-1-yl]propyl}-4-phenylpiperidin-4-ol], the pIC50 is 6.82.

Regarding `CS(=O)(=O)N1CCc2c(c(-c3ccc(C(F)(F)F)c(SCCN4CCCCC4)c3)nn2CC(O)CN2CCN(c3ncccc3Cl)CC2)C1` (centres unmarked) [Example 799, 1-[4-(3-Chloropyridin-2-yl)piperazin-1-yl]-3-[5-(methylsulfonyl)-3-{3-[(2-piperidin-1-ylethyl)sulfanyl]-4-(trifluoromethyl)phenyl}-4,5,6,7-tetrahydro-1H-pyrazolo[4,3-c]pyridin-1-yl]propan-2-ol], the negative-log IC50 (pIC50) is 8.00.

With `O=C(c1cccs1)N1CCc2c(c(-c3ccc(C(F)(F)F)c(SCCN4CCC(F)CC4)c3)nn2CC(O)CN2CCCCC2)C1` (centres unmarked) [Example 578, 1-{3-[3-{[2-(4-Fluoropiperidin-1-yl)ethyl]sulfanyl}-4-(trifluoromethyl)phenyl]-5-(2-thienylcarbonyl)-4,5,6,7-tetrahydro-1H-pyrazolo[4,3-c]pyridin-1-yl}-3-piperidin-1-ylpropan-2-ol], the pIC50 was 6.51.

In the case of `CC(C)(C)C1CCN(CC(O)Cn2nc(-c3ccc(C(F)(F)F)c(SCCN4CCOCC4)c3)c3c2CCN(S(C)(=O)=O)C3)CC1` (centres unmarked) [Example 178, 1-[4-(1,1-Dimethylethyl)piperidin-1-yl]-3-[5-(methylsulfonyl)-3-{3-[(2-morpholin-4-ylethyl)sulfanyl]-4-(trifluoromethyl)phenyl}-4,5,6,7-tetrahydro-1H-pyrazolo[4,3-c]pyridin-1-yl]propan-2-ol], the pIC50 is 6.89.

In the case of `CS(=O)(=O)N1CCc2c(c(-c3ccc(C(F)(F)F)c(SCCN4CCC(F)(F)CC4)c3)nn2C[C@@H](O)CN2CCCCC2)C1` [Example 211, (2S)-1-{3-[3-{[2-(4,4-Difluoropiperidin-1-yl)ethyl]sulfanyl}-4-(trifluoromethyl)phenyl]-5-(methylsulfonyl)-4,5,6,7-tetrahydro-1H-pyrazolo[4,3-c]pyridin-1-yl}-3-piperidin-1-ylpropan-2-ol], the pIC50 is 6.89.
